# From patent US7632933B2, “Corticotropin releasing factor 2 receptor agonists” (priority 2002, dated 2009)
# Columns and labels:
# CRF2R = molecular target: T1, CRF2R (Homo sapiens, UniProt Q13324); assay: CRF2R agonist activity (EC50 and Emax), called comparative CRF binding; assay type: cell-based; conditions: CRF2R; for EC50: CRF2R EC50 (nM)
# T1 sequence (Q13324 1-411): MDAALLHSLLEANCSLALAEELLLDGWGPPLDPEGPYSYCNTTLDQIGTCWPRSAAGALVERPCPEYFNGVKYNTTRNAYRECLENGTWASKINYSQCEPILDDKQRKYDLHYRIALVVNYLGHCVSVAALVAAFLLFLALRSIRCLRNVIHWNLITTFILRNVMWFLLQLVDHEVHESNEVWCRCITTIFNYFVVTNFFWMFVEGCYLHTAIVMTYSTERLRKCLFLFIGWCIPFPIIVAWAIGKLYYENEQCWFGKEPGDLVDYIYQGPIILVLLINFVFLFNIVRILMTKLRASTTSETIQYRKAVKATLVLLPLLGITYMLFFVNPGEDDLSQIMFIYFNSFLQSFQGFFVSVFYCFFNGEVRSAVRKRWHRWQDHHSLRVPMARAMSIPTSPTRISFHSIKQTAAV
# Method in brief: (§1)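 cAMP read-out: lysates of CRF1R- or CRF2R-expressing cells assayed after peptide exposure, compared against vehicle-treated cells; signal from any non-target CRFR subtracted as background.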
# CRF1R = molecular target: T2, CRF1R (Homo sapiens, UniProt P34998); assay: CRF1R agonist activity (EC50 and Emax), called comparative CRF binding; assay type: cell-based; conditions: CRF1R; for EC50: CRF1R EC50 (nM)
# T2 sequence (P34998 24-415): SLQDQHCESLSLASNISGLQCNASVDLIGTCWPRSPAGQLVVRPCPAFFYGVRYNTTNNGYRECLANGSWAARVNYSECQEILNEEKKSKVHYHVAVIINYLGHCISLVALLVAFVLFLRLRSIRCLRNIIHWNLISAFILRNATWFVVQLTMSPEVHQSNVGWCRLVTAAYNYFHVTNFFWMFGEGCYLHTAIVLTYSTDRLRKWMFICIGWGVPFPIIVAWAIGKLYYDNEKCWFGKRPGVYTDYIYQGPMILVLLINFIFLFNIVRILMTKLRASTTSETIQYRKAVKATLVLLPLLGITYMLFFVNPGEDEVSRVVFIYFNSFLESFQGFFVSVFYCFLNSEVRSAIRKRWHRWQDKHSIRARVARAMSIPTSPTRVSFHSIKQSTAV
# Method in brief: as §1
SMILES,EC50 (CRF2R) [nM],EC50 (CRF1R) [nM],CRF2R (Emax %) (CRF2R; Emax),CRF1R (Emax %) (CRF1R)
CC[C@H](C)[C@H](NC(=O)[C@@H](NC(=O)[C@H](CC(=O)O)NC(=O)[C@H](CC(C)C)NC(=O)[C@H](CC(C)C)NC(=O)[C@H](CC(C)C)NC(=O)[C@H](CCCNC(=N)N)NC(=O)[C@H](CC(N)=O)NC(=O)[C@H](CC(N)=O)NC(=O)[C@H](C)NC(=O)[C@H](C)NC(=O)[C@H](CCC(N)=O)NC(=O)[C@H](CCC(N)=O)NC(=O)[C@H](CCCCN)NC(=O)[C@H](CCC(=O)O)NC(=O)[C@H](CCCCN)NC(=O)[C@H](CCC(=O)O)NC(=O)[C@H](CCC(N)=O)NC(=O)[C@H](CCCCN)NC(=O)[C@H](CCC(=O)O)NC(=O)[C@@H](NC(=O)[C@H](CCC(=O)O)NC(=O)[C@@H](NC(=O)[C@H](CCSC)NC(=O)[C@H](CCCCN)NC(=O)[C@H](CCCNC(=N)N)NC(=O)[C@H](CC(C)C)NC(=O)[C@H](CC(C)C)NC(=O)[C@H](CC(N)=O)NC(=O)[C@@H](NC(=O)[C@@H]1CCCN1C(=O)[C@H](CC(C)C)NC(=O)[C@H](CC(=O)O)NC(=O)[C@@H](NC(=O)[C@H](CO)NC(=O)[C@@H](NC(=O)[C@@H]1CCCN1C(=O)[C@@H]1CCCN1C(=O)CNC(=O)[C@@H]1CCC(=O)N1)[C@@H](C)CC)[C@@H](C)CC)[C@@H](C)O)[C@@H](C)CC)[C@@H](C)CC)[C@@H](C)O)C(N)=O [compound 59],> 100,> 100,–,–
CC[C@H](C)[C@H](NC(=O)[C@@H](NC(=O)[C@H](CC(=O)O)NC(=O)[C@H](CC(C)C)NC(=O)[C@H](CC(C)C)NC(=O)[C@H](CC(C)C)NC(=O)[C@H](CCCNC(=N)N)NC(=O)[C@H](CC(N)=O)NC(=O)[C@H](CC(N)=O)NC(=O)[C@H](C)NC(=O)[C@H](C)NC(=O)[C@H](CCC(N)=O)NC(=O)[C@H](CCC(N)=O)NC(=O)[C@H](CCCCN)NC(=O)[C@H](CCC(=O)O)NC(=O)[C@H](CCCCN)NC(=O)[C@H](CCC(=O)O)NC(=O)[C@H](CCC(N)=O)NC(=O)[C@H](CCCCN)NC(=O)[C@H](CCC(=O)O)NC(=O)[C@@H](NC(=O)[C@H](CCC(=O)O)NC(=O)[C@@H](NC(=O)[C@H](CCSC)NC(=O)[C@H](CCCCN)NC(=O)[C@H](CCCNC(=N)N)NC(=O)[C@H](CC(C)C)NC(=O)[C@H](CC(C)C)NC(=O)[C@H](C)NC(=O)[C@@H](NC(=O)[C@@H]1CCCN1C(=O)[C@H](CC(C)C)NC(=O)[C@H](CC(=O)O)NC(=O)[C@@H](NC(=O)[C@H](CO)NC(=O)[C@@H](NC(=O)[C@@H]1CCCN1C(=O)[C@@H]1CCCN1C(=O)CNC(=O)[C@@H]1CCC(=O)N1)[C@@H](C)CC)[C@@H](C)CC)[C@@H](C)CC)[C@@H](C)CC)[C@@H](C)CC)[C@@H](C)O)C(N)=O [compound 47],> 100,≥ 1000,(66) %,(12) %
CC[C@H](C)[C@H](NC(=O)[C@H](CCC(=O)O)NC(=O)[C@@H](NC(=O)[C@H](CCSC)NC(=O)[C@H](CCCCN)NC(=O)[C@H](CCCNC(=N)N)NC(=O)[C@H](CC(C)C)NC(=O)[C@H](CC(C)C)NC(=O)[C@H](CCC(N)=O)NC(=O)[C@H](Cc1ccccc1)NC(=O)[C@@H]1CCCN1C(=O)[C@H](CC(C)C)NC(=O)[C@H](CC(=O)O)NC(=O)[C@@H](NC(=O)[C@H](CO)NC(=O)[C@@H](NC(=O)[C@@H]1CCCN1C(=O)[C@@H]1CCCN1C(=O)CNC(=O)[C@@H]1CCC(=O)N1)[C@@H](C)CC)[C@@H](C)CC)[C@@H](C)CC)C(=O)N[C@@H](CCC(=O)O)C(=O)N[C@@H](CCCCN)C(=O)N[C@@H](CCC(N)=O)C(=O)N[C@@H](CCC(=O)O)C(=O)N[C@@H](CCCCN)C(=O)N[C@@H](CCC(=O)O)C(=O)N[C@@H](CCCCN)C(=O)N[C@@H](CCC(N)=O)C(=O)N[C@@H](CCC(N)=O)C(=O)N[C@@H](C)C(=O)N[C@H](C(=O)N[C@H](C(=O)N[C@@H](CC(N)=O)C(=O)N[C@@H](CCCNC(=N)N)C(=O)N[C@@H](CC(C)C)C(=O)N[C@@H](CC(C)C)C(=O)N[C@@H](CC(C)C)C(=O)N[C@@H](C)C(=O)N[C@H](C(=O)N[C@H](C(N)=O)C(C)C)[C@@H](C)O)[C@@H](C)O)[C@@H](C)O [compound 17],10.2,261,–,–
CC[C@H](C)[C@H](NC(=O)[C@@H](NC(=O)[C@H](CC(=O)O)NC(=O)[C@H](CC(C)C)NC(=O)[C@H](CC(C)C)NC(=O)[C@H](CC(C)C)NC(=O)[C@H](CCCNC(=N)N)NC(=O)[C@H](CC(N)=O)NC(=O)[C@H](CC(N)=O)NC(=O)[C@H](C)NC(=O)[C@H](C)NC(=O)[C@H](CCC(N)=O)NC(=O)[C@H](CCC(N)=O)NC(=O)[C@H](CCCCN)NC(=O)[C@H](CCC(=O)O)NC(=O)[C@H](CCCCN)NC(=O)[C@H](CCC(=O)O)NC(=O)[C@H](CCC(N)=O)NC(=O)[C@H](CCCCN)NC(=O)[C@H](CCC(=O)O)NC(=O)[C@@H](NC(=O)[C@H](CCC(=O)O)NC(=O)[C@@H](NC(=O)[C@H](CCSC)NC(=O)[C@H](CCCCN)NC(=O)[C@H](CCCNC(=N)N)NC(=O)[C@H](CC(C)C)NC(=O)[C@H](CC(C)C)NC(=O)[C@H](C)NC(=O)[C@@H](NC(=O)[C@@H]1CCCN1C(=O)[C@H](CC(C)C)NC(=O)[C@H](CC(=O)O)NC(=O)[C@@H](NC(=O)[C@H](CO)NC(=O)[C@@H](NC(=O)[C@@H]1CCCN1C(=O)[C@@H]1CCCN1C(=O)CNC(=O)[C@@H]1CCC(=O)N1)[C@@H](C)CC)[C@@H](C)CC)[C@@H](C)O)[C@@H](C)CC)[C@@H](C)CC)[C@@H](C)O)C(N)=O [compound 301],50.4,690,–,(84.10) %
CC[C@H](C)[C@H](NC(=O)[C@@H](NC(=O)[C@H](CC(=O)O)NC(=O)[C@H](CC(C)C)NC(=O)[C@H](CC(C)C)NC(=O)[C@H](CC(C)C)NC(=O)[C@H](CCCNC(=N)N)NC(=O)[C@H](CC(N)=O)NC(=O)[C@H](CC(N)=O)NC(=O)[C@H](C)NC(=O)[C@H](C)NC(=O)[C@H](CCC(N)=O)NC(=O)[C@H](CCC(N)=O)NC(=O)[C@H](CCCCN)NC(=O)[C@H](CCC(=O)O)NC(=O)[C@H](CCCCN)NC(=O)[C@H](CCC(=O)O)NC(=O)[C@H](CCC(N)=O)NC(=O)[C@H](CCCCN)NC(=O)[C@H](CCC(=O)O)NC(=O)[C@@H](NC(=O)[C@H](CCC(=O)O)NC(=O)[C@@H](NC(=O)[C@H](CCSC)NC(=O)[C@H](CCCCN)NC(=O)[C@H](CCCNC(=N)N)NC(=O)[C@H](CC(C)C)NC(=O)[C@H](CC(C)C)NC(=O)CNC(=O)[C@@H](NC(=O)[C@@H]1CCCN1C(=O)[C@H](CC(C)C)NC(=O)[C@H](CC(=O)O)NC(=O)[C@@H](NC(=O)[C@H](CO)NC(=O)[C@@H](NC(=O)[C@@H]1CCCN1C(=O)[C@@H]1CCCN1C(=O)CNC(=O)[C@@H]1CCC(=O)N1)[C@@H](C)CC)[C@@H](C)CC)[C@@H](C)O)[C@@H](C)CC)[C@@H](C)CC)[C@@H](C)O)C(N)=O [compound 73],> 100,> 100,–,–
